The subject of assay [1] is spermine synthase (Rattus norvegicus). In words: Inhibition of spermine synthase at 100 uM concentration of the compound; values are per cent of control.
The test system is the same in assay [2]. In words: Inhibition of spermine synthase at 25 uM concentration of the compound; values are per cent of control.

The text below walks through data of ChEMBL document CHEMBL1121737, “Synthesis and evaluation of some stable multisubstrate adducts as specific inhibitors of spermidine synthase” (J Med Chem, 1981).

In general, residual activity refers to the share of the control activity or signal that is left under treatment. Low readings indicate little activity left, high ones much activity left.

The structures appear in SMILES notation.

`CCCCCC(CC)SC[C@H]1OC(n2cnc3c(N)ncnc32)[C@H](O)[C@@H]1O` (some centres not stated): the figures for the residual activity in assay [1] and in assay [2] were 78% and 89%, respectively.
